Earlier results on one compound are cited in patent US20130085131A1, “HETEROCYCLIC COMPOUNDS AND THEIR USES” (Amgen Inc., priority 2010, published 2013).

The chains behind the UniProt entries cited, without tags or fusion partners. Where a name states a change or a piece, a line headed by the entry shows the natural chain unless it says otherwise.
UniProt P42338: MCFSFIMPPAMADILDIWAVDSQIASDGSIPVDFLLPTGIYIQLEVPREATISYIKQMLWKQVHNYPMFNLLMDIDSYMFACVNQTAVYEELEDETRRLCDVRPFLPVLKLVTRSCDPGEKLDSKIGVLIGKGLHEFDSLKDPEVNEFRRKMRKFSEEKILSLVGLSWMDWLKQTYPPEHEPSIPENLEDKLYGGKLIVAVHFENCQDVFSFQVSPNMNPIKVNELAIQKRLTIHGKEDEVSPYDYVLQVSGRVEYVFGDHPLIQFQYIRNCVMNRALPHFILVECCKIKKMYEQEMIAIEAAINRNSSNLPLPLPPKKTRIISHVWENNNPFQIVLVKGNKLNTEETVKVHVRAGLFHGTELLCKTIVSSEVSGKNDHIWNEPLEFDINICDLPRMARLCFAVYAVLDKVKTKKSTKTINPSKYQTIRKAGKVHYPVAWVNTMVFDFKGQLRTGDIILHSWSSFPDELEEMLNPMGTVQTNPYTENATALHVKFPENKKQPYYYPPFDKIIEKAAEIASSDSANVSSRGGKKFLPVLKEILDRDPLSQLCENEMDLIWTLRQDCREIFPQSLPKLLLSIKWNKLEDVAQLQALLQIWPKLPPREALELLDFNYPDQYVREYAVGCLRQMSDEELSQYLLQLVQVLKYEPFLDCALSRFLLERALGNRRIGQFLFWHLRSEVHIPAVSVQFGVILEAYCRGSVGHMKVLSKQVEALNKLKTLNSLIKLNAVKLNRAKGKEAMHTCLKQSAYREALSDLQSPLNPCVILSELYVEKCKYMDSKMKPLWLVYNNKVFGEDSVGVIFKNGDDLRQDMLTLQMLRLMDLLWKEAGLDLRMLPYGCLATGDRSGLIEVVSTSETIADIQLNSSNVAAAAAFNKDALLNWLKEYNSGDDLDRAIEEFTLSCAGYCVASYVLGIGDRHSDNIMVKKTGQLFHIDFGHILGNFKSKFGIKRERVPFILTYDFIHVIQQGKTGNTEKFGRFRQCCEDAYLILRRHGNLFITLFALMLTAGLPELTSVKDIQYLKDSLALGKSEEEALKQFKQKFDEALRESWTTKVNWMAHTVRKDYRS

The data set has as its target p110β (Homo sapiens, UniProt P42338). The settings on record: on beta; read-out: potency on beta.

Molecules are shown by their SMILES.

With `Cc1cc(C(C)Nc2ccccc2)c2nc(N3CCOCC3)cc(=O)n2c1` (stereo not shown) [TGX-221], the IC50 is 7 nM.
